Reference: publication PMC2113509

Biological target: fodrin (nonerythroid spectrin) from bovine brain (bovine)
Test: far-Western, overlay or dot blot

cpm bound: 8280 cpm
Substance: calmodulin (bovine brain), 125I-labelled (from UniProt P62157 1-149) (natural protein)
